For 6 compounds, TR-FRET ratio results are on record in PubChem BioAssay AID1048 (The Scripps Research Institute Molecular Screening Center, 2008).

This is a selection; strong and weak results do not stand in their true shares. Some tests of the compounds listed are not included; inactive here does not mean inactive elsewhere. Activity calls are given as the source filed them. Cut-off read from the data, not from the text of the source: active = TR-FRET ratio above about 2000; inactive = the rest.

This experiment in a line: signal artefacts in PPARgamma/SRC-3 readout – biochemical, TR-FRET ratio, artefact control for PPARgamma SRC-3 recruitment agonists (AID 1048). To be noted: TR-FRET artefact counter-screen, PPARgamma/SRC-3 format; at 8 µM; stronger effect = higher value.
As to `COc1cccc(C(=O)NCC2(N3CCCCC3)CCCCC2)c1`, the TR-FRET ratio was inactive: 1480.
In the case of `O=C(NCC1(N2CCCCC2)CCCCC1)c1cc([N+](=O)[O-])ccc1Cl`, the TR-FRET ratio was inactive: 1510.
`CN(C)C1CCCC1OC(=O)C(O)(c1ccccc1)c1ccccc1` (stereo unspecified): the TR-FRET ratio was inactive: 1550.
Under `Cc1ccccc1C(=O)NCC1(N2CCCCC2)CCCCC1` stands inactive: 1580; under `C=CCN1CCN(CCOC(=O)C(O)(c2ccccc2)c2ccccc2)CC1`, inactive: 1740.
Then `CCN1CCCC(OC(=O)C2(O)c3ccccc3C=Cc3ccccc32)C1` (stereo unspecified), with inactive: 1670.
